Test results: PubChem BioAssay AID488839 (Broad Institute, 2010)
Only a part is listed here, and it is no random draw. Activity calls are given as the source filed them.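 How the source made its calls: active means highest replicate inhibition of at least 50% and at least 75% of replicates reaching 50%; inconclusive means only one of the two criteria met; inactive means both criteria failed.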

Protein sequences, listed by entry. Tags and fused reporters are not part of them.
UniProt Q00535, whole entry, looked up: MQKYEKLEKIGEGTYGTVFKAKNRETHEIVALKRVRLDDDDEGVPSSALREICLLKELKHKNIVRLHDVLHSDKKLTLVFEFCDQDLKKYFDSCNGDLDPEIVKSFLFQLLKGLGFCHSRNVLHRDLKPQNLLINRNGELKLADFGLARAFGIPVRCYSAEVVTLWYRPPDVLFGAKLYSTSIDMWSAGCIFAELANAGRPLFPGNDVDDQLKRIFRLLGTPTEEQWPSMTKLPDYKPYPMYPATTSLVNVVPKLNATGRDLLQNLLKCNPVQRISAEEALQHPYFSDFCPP
UniProt Q15078, whole entry, looked up: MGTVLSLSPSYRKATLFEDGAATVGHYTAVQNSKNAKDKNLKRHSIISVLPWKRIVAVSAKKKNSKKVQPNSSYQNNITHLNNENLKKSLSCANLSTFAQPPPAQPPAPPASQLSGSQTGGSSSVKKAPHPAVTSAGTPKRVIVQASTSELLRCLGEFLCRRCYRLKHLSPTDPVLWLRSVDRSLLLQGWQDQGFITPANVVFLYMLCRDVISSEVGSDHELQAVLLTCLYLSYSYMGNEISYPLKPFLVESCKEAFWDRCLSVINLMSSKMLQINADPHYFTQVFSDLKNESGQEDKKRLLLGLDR

Each compound was assayed against Cyclin-dependent kinase 5 (Homo sapiens) + Cyclin-dependent kinase 5 activator 1 (Homo sapiens) (UniProt Q00535+Q15078) (assay: CDK5/p35 phosphotransfer blockade – biochemical, single concentration, primary screen (AID 488839;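 further: plate controls were DMSO neutral control for no effect and GW8510 at 10 µM for full effect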)). Settings: Recombinant CDK5/p35, ADP-Glo luminescence, 60 min; at 10 µM; hits give high values.

Q: Which inhibition does the source give for `CCC(=O)N(c1ccccc1)C1(COC)CCN(CCc2cccs2)CC1` here?
A: inactive: -2.02%

Q: How did the inhibition turn out when `CCC(=O)N(c1ccccc1)C1(COC)CCN(CCn2nnn(CC)c2=O)CC1` was run?
A: inactive: 1.08%
